According to patent US20110052537A1, “NITRO-BASED EXPLOSIVE REMEDIATION” (published 2011):

Test: Absorption and distribution of [14C]TNT in sheep
Conditions: oral 35.5 mg
[1] = average of wether 368 and 370, at slaughter

## 2,4,6-trinitro-[^14C]toluene
Average of wether 368 and 370
  % of [14C]TNT dose in cage wash: 0.3%
  % of [14C]TNT dose in feces T0-6: 0.2%
  % of [14C]TNT dose in feces T6-12: 3.0%
  % of [14C]TNT dose in feces T12-18: 11.8%
  % of [14C]TNT dose in feces T18-24: 8.7%
  % of [14C]TNT dose in feces T24-32: 13.8%
  % of [14C]TNT dose in feces T32-40: 15.6%
  % of [14C]TNT dose in feces T40-48: 9.0%
  % of [14C]TNT dose in feces T48-60: 10.1%
  % of [14C]TNT dose in feces T60-72: 4.6%
  % of [14C]TNT dose in feces, total: 76.6%
  % of [14C]TNT dose in urine T0-6: 12.6%
  % of [14C]TNT dose in urine T6-12: 2.6%
  % of [14C]TNT dose in urine T12-18: 0.7%
  % of [14C]TNT dose in urine T18-24: 0.4%
  % of [14C]TNT dose in urine T24-32: 0.2%
  % of [14C]TNT dose in urine T32-40: 0.2%
  % of [14C]TNT dose in urine T40-48: 0.2%
  % of [14C]TNT dose in urine T48-60: 0.2%
  % of [14C]TNT dose in urine T60-72: 0.1%
  % of [14C]TNT dose in urine, total: 17.1%
  total recovery (%) of [14C]TNT dose: 99.3%
[1]
  % of [14C]TNT dose in tissues: adipose: 0.00%
  % of [14C]TNT dose in tissues: bile: 0.00%
  % of [14C]TNT dose in tissues: blood: 0.00%
  % of [14C]TNT dose in tissues: bone: 0.03%
  % of [14C]TNT dose in tissues: brain: 0.00%
  % of [14C]TNT dose in tissues: eye: 0.01%
  % of [14C]TNT dose in tissues: heart: 0.00%
  % of [14C]TNT dose in tissues: kidney: 0.01%
  % of [14C]TNT dose in tissues: large intestine content: 2.40%
  % of [14C]TNT dose in tissues: large intestine tissue: 0.02%
  % of [14C]TNT dose in tissues: liver: 0.07%
  % of [14C]TNT dose in tissues: lung: 0.01%
  % of [14C]TNT dose in tissues: remainder of carcass: 0.03%
  % of [14C]TNT dose in tissues: rumen content: 2.60%
  % of [14C]TNT dose in tissues: rumen tissue: 0.06%
  % of [14C]TNT dose in tissues: skeletal muscle: 0.02%
  % of [14C]TNT dose in tissues: skin: 0.07%
  % of [14C]TNT dose in tissues: small intestine content: 0.11%
  % of [14C]TNT dose in tissues: small intestine tissue: 0.02%
  % of [14C]TNT dose in tissues: spleen: 0.00%
  % of [14C]TNT dose in tissues: thyroid: 0.00%
Wether 367
  % of [14C]TNT dose in cage wash: 0.4%
  % of [14C]TNT dose in feces T0-6: 0.2%
  % of [14C]TNT dose in feces T6-12: 0.1%
  % of [14C]TNT dose in feces T12-18: 0.1%
  % of [14C]TNT dose in feces T18-24: 0.1%
  % of [14C]TNT dose in feces T24-32: 0.0%
  % of [14C]TNT dose in feces T32-40: 0.1%
  % of [14C]TNT dose in feces T40-48: 0.0%
  % of [14C]TNT dose in feces T48-60: 0.5%
  % of [14C]TNT dose in feces T60-72: 3.9%
  % of [14C]TNT dose in feces, total: 5.0%
  % of [14C]TNT dose in urine T0-6: 16.8%
  % of [14C]TNT dose in urine T6-12: 9.5%
  % of [14C]TNT dose in urine T12-18: 3.2%
  % of [14C]TNT dose in urine T18-24: 2.2%
  % of [14C]TNT dose in urine T24-32: 0.5%
  % of [14C]TNT dose in urine T32-40: 0.0%
  % of [14C]TNT dose in urine T40-48: 0.7%
  % of [14C]TNT dose in urine T48-60: 0.3%
  % of [14C]TNT dose in urine T60-72: 0.4%
  % of [14C]TNT dose in urine, total: 33.6%
  total recovery (%) of [14C]TNT dose: 102.1%
Wether 367, at slaughter
  % of [14C]TNT dose in tissues, total: 63.09%
  % of [14C]TNT dose in tissues: adipose: 0.00%
  % of [14C]TNT dose in tissues: bile: 0.01%
  % of [14C]TNT dose in tissues: blood: 0.00%
  % of [14C]TNT dose in tissues: bone: 0.24%
  % of [14C]TNT dose in tissues: brain: 0.00%
  % of [14C]TNT dose in tissues: eye: 0.02%
  % of [14C]TNT dose in tissues: heart: 0.01%
  % of [14C]TNT dose in tissues: kidney: 0.03%
  % of [14C]TNT dose in tissues: large intestine content: 8.80%
  % of [14C]TNT dose in tissues: large intestine tissue: 0.14%
  % of [14C]TNT dose in tissues: liver: 0.19%
  % of [14C]TNT dose in tissues: lung: 0.03%
  % of [14C]TNT dose in tissues: remainder of carcass: 0.31%
  % of [14C]TNT dose in tissues: rumen content: 51.18%
  % of [14C]TNT dose in tissues: rumen tissue: 0.93%
  % of [14C]TNT dose in tissues: skeletal muscle: 0.47%
  % of [14C]TNT dose in tissues: skin: 0.38%
  % of [14C]TNT dose in tissues: small intestine content: 0.26%
  % of [14C]TNT dose in tissues: small intestine tissue: 0.08%
  % of [14C]TNT dose in tissues: spleen: 0.01%
  % of [14C]TNT dose in tissues: thyroid: 0.00%

Only a part of the results on these compounds is given; other tests are left out.
